Nrf2 block = inhibitors of Nrf2 signaling. actives 2.1% (n = 360,000). A549 ARE-Fluc reporter, luciferase luminescence, 18-24 h. AID 504444. Potency, µM (series often up to 46 µM), actives largely listed as inhibitors; note: nearly all actives have a fitted effect of over 60% in size
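Reporter: ARE-Fluc in A549. Exposure: 18-24 h, 37 °C, 5% CO2, 5% FBS OPTI-MEM. Readouts: fluorescent cytotoxicity (CellTiter-Fluor), then luminescent Nrf2 signal after BugLite.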
p53 reactivator = mutant p53 re-activation in reporter cells; H1299 p53-A138V BP100-luciferase reporter, luminescence, 24 h; Potency, µM (top dose mostly 92.2 µM), actives largely listed as activators; actives 0.063% (n = 320,000); note: nearly all actives have a fitted effect of over 45% in size
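H1299 (p53-null), stable ts p53-A138V + BP100-Luc; 1000 cells/well, Opti-MEM/10% FBS; cpd 4 pt, 1:5; 24 h, 37 deg C, 5% CO2; detection reagent 10 min RT; luminescence.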
A549 tox = kills or reduces viability of A549 cells in Nrf2 counter-screen | A549 ARE-Fluc cells, CellTiter-Fluor viability, 18-24 h | Potency, µM (highest dose often 46 µM), usual class: inhibitors | AID 504648 | actives 0.16% (n = 390,000)
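A549 ARE_Fluc cells in 5% FBS OPTI-MEM were exposed to compounds in concentration-response for 18-24 h at 37 deg C. Viability was read by CellTiter-Fluor fluorescence (Ex 405/Em 525) after 30 min, before the luciferase read.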
Nrf2 ARE act = Nrf2 pathway activation; AREc32 ARE-luciferase reporter (MCF7-derived line), luminescence, 24 h; Potency, µM (series often up to 46.1 µM), usual class: activators; actives 0.31% (n = 410,000); AID 624171; note: nearly all actives have a fitted effect of over 65% in size
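ARE activation measured as luciferase luminescence (Steady-Glo, 30 min RT) in AREc32_Fluc cells after 24 hr compound exposure at 37 deg C, 5% CO2; cells seeded overnight at 1000/well in OPTI-MEM, 5% FBS.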
miR-21 reporter = miR-21 reporter, rising signal. 340,000 tested, under 10 active. Potency, µM (highest dose often 38.3 µM). HeLa miR-21 FLuc reporter, luciferase, 48 h. AID 2288; active = well fitted rising curve with a large enough effect; inconclusive = small, poorly fitted or top-dose-only effect; inactive = no such curve, though single readings can be large or run the other way;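 further: miR-21 action dims this reporter so a rising signal means less miR-21 action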
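Using DMEM plus 10% FBS, HeLa miR-21-FLuc cells are incubated with test compounds (final up to about 40uM) for 48 hours; firefly luciferase signal is then imaged following reagent-mediated lysis.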
ClpP mod = qHTS Assay for Activators of ClpP | actives 1.9% (n = 340,000) | Potency, µM (titrated, usually from 57.5 µM) | purified B. subtilis ClpP, FRET peptide cleavage, 20 min | AID 651965, 2013; active = well fitted falling curve with a large enough effect; inconclusive = small, poorly fitted or top-dose-only effect; inactive = no such curve, though single readings can be large or run the other way; note: the source files actives as falling curves though it sought activators and does not explain the sign; nearly all actives have a fitted effect of over 65% in size
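Purified B. subtilis ClpP, 10 microg/mL final in Tris/HCl pH8 with KCl, BSA, glycerol and Tween-20, cleaved an Abz/nitrotyrosine-quenched decapeptide. Fluorescence (ex 320, em 430) was read at 0 and 20 min at room temperature. Delta was normalized to 5.8 microM ADEP and DMSO/no-enzyme controls.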
Hits are given with their value; - = inactive; ? = inconclusive; . = not tested or not shown; [ ] = dose if it differs, or a comment. This is a sample that favours compounds with a hit; in the whole collection about 3.7% have one here. Unless noted, calls come from the whole dose curve; as a rule, active = well fitted curve in the direction sought with a large enough effect; inconclusive = small, poorly fitted or top-dose-only effect, or another doubt; inactive = no such curve, though single readings can be large; an effect the other way counts as inactive or inconclusive.

SMILES	Nrf2 block	p53 reactivator	A549 tox	Nrf2 ARE act	miR-21 reporter	ClpP mod
Cn1nc(C(F)(F)F)c2cc(C(=O)Nc3ccc(F)c(Cl)c3)sc21	13µM	-	-	-	-	.
Cn1nc(C(F)(F)F)c2cc(C(=O)Nc3ccc(F)cc3)sc21	?	-	?	-	-	.
Cn1nc(C(F)(F)F)c2cc(C(=O)Nc3ccc(C(F)(F)F)cc3)sc21	23.1µM	-	?	-	-	-
Cn1nc(C(F)(F)F)c2cc(C(=O)O)sc21	-	-	-	-	-	.
CCN1CCOC(=O)C1CC(=O)Nc1cc(Cl)ccc1C (stereo not given)	-	.	-	-	-	-
CCOC(=O)C1=C(CN2CCCCC2)NC(=O)NC1c1ccc(C)cc1 (stereo not given)	-	.	-	-	-	-
Oc1ccc(Nc2nc3ccccc3nc2Nc2ccc(O)cc2)cc1	-	-	-	?	?	31.6µM
Oc1ccc(Nc2nc(-c3ccccc3)nc3ccccc23)cc1	?	-	-	-	-	-
O=C(CCS(=O)(=O)c1nc(-c2cccs2)cc(C(F)(F)F)n1)Nc1ccc(Br)cc1	-[9.27 µM]	.	-	-	?	31.6µM
O=C(CCS(=O)(=O)c1nc(-c2cccs2)cc(C(F)(F)F)n1)Nc1cc(Br)ccc1O	?	.	?	?	?	-
CCCCCc1cc[n+](CC(=O)c2ccccc2)cc1	.	.	.	.	.	-
CCN(c1ccccc1)C(CNS(=O)(=O)c1ccccc1)c1ccccc1 (stereo not given)	23.1µM	.	-	-	?	-
COC(=O)c1ccccc1NC(=O)c1ccccc1OC	-	-	-	-	-	-
COc1ccccc1C(=O)Nc1ccccc1SC(=O)c1ccccc1OC	?	12.6µM	?	-	-	-
Cc1ccc(CN(Cc2ccco2)C(=O)COc2ccccc2C)cc1	-	.	-	-	-	-
CCOC(=O)COc1ccc2nsnc2c1Cl	.	-	-	-	-	35.5µM
CCOc1ccc(N2C(=O)C(Cl)=C(Nc3ccccc3O)C2=O)cc1	-	?	-	12.6µM	-	-
O=C(c1ccc(Cl)cc1)C1CCN(C(=O)NC2CCCCC2)CC1	18.4µM	-	-	-	-	-
O=C1CC(c2ccc(Br)cc2)c2c(ccc3ccccc23)N1 (stereo not given)	?	.	-	-	-	-
C/C(Cc1ccccc1)=N\NC(=O)C1CCCCC1	-	-	-	-	-	28.2µM
O=C(Cc1ccccc1)NNC(=O)C1CCCC1	-	-	-	-	-	-
CC(=O)Nc1ccc(OC2=NS(=O)(=O)c3ccccc32)cc1	?	.	-	.	.	.
CCOc1ccccc1NC(=O)C(C)Sc1nc2c(c(=O)[nH]1)CCCC2 (stereo not given)	-	.	-	-	-	-
CC(=O)N1c2ccccc2C(=O)OC1c1cccnc1 (stereo not given)	-	-	-	-	-	28.2µM
Cc1ccc(S(=O)(=O)NCCc2nnc3ccc(SCC(=O)Nc4ccc(OC(F)(F)F)cc4)nn23)cc1	-	.	-	-	-	-
SMILES	Nrf2 block	p53 reactivator	A549 tox	Nrf2 ARE act	miR-21 reporter	ClpP mod
O=C(c1cc2c(s1)-c1ccccc1OC2)N1CCc2ccccc2C1	-	-	-	-	-	-
COc1ccccc1N1CCN(C(=O)c2cc3c(s2)-c2ccccc2OC3)CC1	-	.	-	-	-	14.1µM
CC(C)C(OC(=O)CNC(=O)c1ccccc1)C(=O)Nc1cc(C(F)(F)F)ccc1Cl (stereo not given)	-	.	-	.	.	.
Nc1[nH]c2cc([N+](=O)[O-])ccc2c1-c1ccccn1	-	-	13µM	-	-	-
O=C(NCCCN1CCN(c2ccc(F)cc2)CC1)c1ccc2nc(Cc3ccccc3)oc2c1	.	.	-	-	?	-
O=C(NCCc1nc2ccccc2[nH]1)c1cccc(Br)c1	25.9µM	-	-	-	-	.
C=Cc1ccc(CSc2nnc(C)n3c2cc2occc23)cc1	18.4µM	.	-	-	-	-
CC(C)(C)c1ccc(Cn2nnc3c(=O)[nH]c(C4CCN(C(=O)c5ccco5)CC4)nc32)cc1	25.9µM	-	?	-	-	-
O=C(c1ccco1)N1CCC(c2nc3c(nnn3Cc3c(Cl)cccc3Cl)c(=O)[nH]2)CC1	-	-	-	-	-	.
CC(C)(C)c1ccc(Cn2nnc3c(=O)[nH]c(C4CCCN(C(=O)c5cccs5)C4)nc32)cc1 (stereo not given)	23.1µM	-	-	-	-	.
COc1ccc(-c2coc3cc(OC(C)=O)ccc3c2=S)cc1	-	.	-	-	.	.
Cc1cccc(N2CCN(C(=O)C3CCN(S(=O)(=O)c4ccc5c(c4)oc(=O)n5C)CC3)CC2)c1C	?	.	-	-	-	-
Cc1ccc(CNC(=O)C(C)n2c(=O)cc(-c3ccccc3)c3c(C)nn(C)c32)cc1 (stereo not given)	-	.	-	-	-	-
C(=N\Nc1nc(-c2ccccc2)cs1)/c1cccnc1	-	-	-	-	-	-
Clc1ccc(-c2csc(N/N=C/c3cccnc3)n2)c(Cl)c1	13µM	-	-	-	-	-
CS(=O)(=O)c1nc(S(=O)(=O)c2ccc(Cl)cc2)c(N2CCC3(CC2)OCCO3)s1	?	-	-	10µM	-	-
CCS(=O)(=O)c1nc(S(=O)(=O)c2ccc(Cl)cc2)c(N2CCOCC2)s1	-	-	-	?	-	-
CCS(=O)(=O)c1nc(S(=O)(=O)c2ccc(Cl)cc2)c(N2CCC3(CC2)OCCO3)s1	-	-	-	11.2µM	-	-
CS(=O)(=O)c1nc(S(=O)(=O)c2ccc(Cl)cc2)c(N2CCC(C(N)=O)CC2)s1	-	-	-	?	-	-
Cc1cc(C)cc(NC(=O)CN2C(=O)CCc3cc(S(=O)(=O)N4CCCCC4)ccc32)c1	.	.	-	-	-	-
CN(C)S(=O)(=O)c1cccc(NC(=O)c2cncc(Br)c2)c1	-	-	-	-	-	-
Cc1ccc(S(=O)(=O)N2CCCCC2)cc1NC(=O)c1cncc(Br)c1	-	-	-	-	.	11.2µM
Cc1ccc(S(=O)(=O)N(C)C)cc1NC(=O)c1cncc(Br)c1	11.6µM	-	-	-	-	-
CC1(C)CC(=O)C=C(NC2=CC3OC(c4ccccc4)OCC3OC2=O)C1 (stereo not given)	16.4µM	-	?	-	-	-
Cc1cc(NCCO)c2cc(O)ccc2n1	-	-	-[1.84 µM]	-	-	15.8µM
COC(=O)c1cc(NS(=O)(=O)c2ccc(NCc3cccnc3)c([N+](=O)[O-])c2)cc(C(=O)OC)c1	-	-	-	-	-	28.2µM

From PubChem
